A word on the IC50: it is the point on the concentration scale where inhibition reaches its midpoint.

Protein sequences, listed by entry. Tags and fused reporters are not part of them. Residues count along the entry.
UniProt P97612, 30-579: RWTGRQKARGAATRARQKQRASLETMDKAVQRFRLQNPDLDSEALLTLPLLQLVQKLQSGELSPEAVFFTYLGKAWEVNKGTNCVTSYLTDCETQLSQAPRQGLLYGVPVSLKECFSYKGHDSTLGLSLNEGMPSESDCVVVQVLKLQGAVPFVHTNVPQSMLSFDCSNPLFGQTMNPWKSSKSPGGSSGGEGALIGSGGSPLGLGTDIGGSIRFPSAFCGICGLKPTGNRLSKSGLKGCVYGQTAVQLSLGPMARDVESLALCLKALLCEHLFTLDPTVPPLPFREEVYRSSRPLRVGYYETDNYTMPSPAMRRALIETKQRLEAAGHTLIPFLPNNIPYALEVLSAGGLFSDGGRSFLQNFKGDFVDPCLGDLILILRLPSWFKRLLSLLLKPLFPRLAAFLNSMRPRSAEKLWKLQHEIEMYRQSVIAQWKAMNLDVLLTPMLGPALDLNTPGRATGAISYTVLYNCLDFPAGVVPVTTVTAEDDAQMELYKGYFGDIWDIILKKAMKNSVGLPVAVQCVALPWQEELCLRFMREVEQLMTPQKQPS

This passage reports IC50 results from US9682953B2, “Amide compounds, compositions and applications thereof” (Advinus Therapeutics Limited, priority 2011, dated 2017).

The target in the experiment is rat Fatty Acid Amide Hydrolase (FAAH) (Rattus norvegicus (Rat), UniProt P97612). Nature of the experiment: FAAH in vitro fluorescence assay (AAMCA hydrolysis), rat enzyme. Format: biochemical. As to conditions: read-out: rFAAH IC50. The procedure: Material and Reagents: All reagents were purchased from Sigma-Aldrich unless specified. […] Chaperone protein groEL-groES in pGRO7 plasmid (Takara Bio Inc, Japan) was co-expressed with Fatty Acid Amide Hydrolase (FAAH) to improve solubility of the protein expressed in E coli. […]
The assay was carried out in 200 μL volume in a 96-well black polystyrene plate (Greiner Bio-one, Germany). […] The reaction was incubated with 2 μL of varying concentrations of inhibitor in DMSO (final concentration of DMSO 1%) with shaking for 1 min and monitored for increase in fluorescence in kinetic mode for 50 min. […] Data was analyzed using GraphPad Prism 5 (GraphPad Software Inc., San Diego, Calif.). The activity of the compounds for rat Fatty Acid Amide Hydrolase (FAAH) was evaluated as described above with rat Fatty Acid Amide Hydrolase (FAAH) protein and 10 μM AAMCA substrate.

Consider `Cc1nc(C(=O)NC2CCC(=Cc3cccc(Oc4ccc(C(F)(F)F)cc4)c3)CC2)sc1-c1cccnc1` (stereo not shown) [Example 2.B-1, 4-Methyl-5-(3-pyridyl)-N-[4-[[3-[4-(trifluoromethyl)phenoxy]phenyl]methylene]cyclohexyl]thiazole-2-carboxamide], for which the concentration for half-maximal inhibition (IC50) is 0.237 µM.
